This is one part of a sample in which hits are shown more often than they occur.
GIV-Gai inh = GIV-Galpha-i interaction inhibition. AID 1224905. actives 0.42% (n = 210,000). percent of control (FP), % (test concentration not listed). Galpha-i3/FITC-GIV peptide fluorescence polarization, 90 min; stronger effect = lower value; scaled: aluminum fluoride 0%, vehicle 100%;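 active = replicate mean at 85% of control or lower, very high polarization wells dropped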;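 also: wells of about 15 µL received 100 nL stock; the first replicate is given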
GIV Gai FP conf = confirmation of inhibitors of GIV binding to rat Galpha-i3; shares compounds with GIV-Gai inh; FITC-GIV peptide binding to Galphai3, fluorescence polarization; hits give low values; fluorescence polarization, mP at 100 µM; 580 tested, 38% active; AID 1259350;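 active = inhibition score of 15 or more, meaning 100 minus mean polarization as percent of control over three replicates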;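 note: lower mP means peptide displaced from Galphai3 so more inhibition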
GIV-Gai AS conf = GIV-Galpha-i3 inhibition, AlphaScreen confirmation; shares compounds with GIV-Gai inh; AlphaScreen Galphai3-GIV binding, purified proteins, 90 min; hits give low values; AlphaScreen counts at 100 µM; 580 tested, 39% active; AID 1259351;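 active = inhibition score at or above a set limit, where the score is 100 minus the three-replicate mean percent of control signal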
Starred values were filed as active, the others as inactive; ! = a repeat was not active.

SMILES	GIV-Gai inh	others
O=C(O)C1=CC(=C(c2ccc(O)c(C(=O)O)c2)c2ccc(O)c(C(=O)O)c2)C=CC1=O	-19*	GIV Gai FP conf=17*;GIV-Gai AS conf=2586*
Nc1ccc(O)c(C(=O)O)c1	91
CCc1cccc(N2C(=O)C(Cc3ccccc3)N=C2N2CCCCC2)c1 (stereo not given)	102
CCN(Cc1ccccc1)C(=O)CCc1nc(CN2CCN(S(=O)(=O)c3ccc(CC(C)C)cc3)CC2)no1	106
O=C(CSc1nnc2c3sc(N4CCCC4)nc3ncn12)Nc1ccc(Cl)cc1	103
O=C(CSc1nnc2c3sc(N4CCCC4)nc3ncn12)Nc1ccc(F)c(F)c1	110
O=C(CSc1nnc2c3sc(N4CCCC4)nc3ncn12)Nc1ccc2c(c1)OCO2	30*	GIV Gai FP conf=83;GIV-Gai AS conf=27926
CSC(SC)=C1C(=O)c2ccccc2N(C)S1(=O)=O	104
Cc1ccc(C)n1-c1sccc1C#N	102
N#Cc1ccsc1/N=C/c1ccccc1	106
Cc1ccc(/C=N/c2sccc2C#N)cc1	48*	GIV Gai FP conf=40*;GIV-Gai AS conf=10146*
O=C(Nc1ccccc1)c1nnc(COCC(=O)N2CCN(C3CCCCC3)CC2)s1	108
COc1cc(C2Nc3ccccc3C(=O)N2c2ccccc2)cc(OC)c1OC (stereo not given)	104
Cc1nnc(C)n1N1C(=O)c2cccc3cccc(c23)C1=O	97
O=c1c2cccc3cccc(c32)c2nc3ccc4ccccc4c3n12	112
Nc1nnn2c(=O)c3cccc4cccc(c43)c12	88	GIV Gai FP conf=79;GIV-Gai AS conf=19934*
CCC(CC)C(=O)N1CC(C)C(=O)Nc2ccccc21 (stereo not given)	98
C=CCNC(=O)C(C)Sc1nnc2c(n1)[nH]c1ccccc12 (stereo not given)	99
C=CCSc1nnc2c(n1)[nH]c1ccccc12	103
C=CCNc1nc2c([nH]c3ccccc32)s1	87	GIV Gai FP conf=56*;GIV-Gai AS conf=13174*
N#CC1(C#N)[C@@H]2c3ccccc3C=CN2[C@@H](C(=O)c2cccs2)[C@@H]1c1cccs1	117
Cc1cc(-c2nc(-c3ccccc3)no2)n[nH]1	112
CC(NC(=O)c1ccccc1)c1nc(-c2ccc(-c3csc(C4CC4)n3)cc2)no1 (stereo not given)	99
COC(=O)c1c(-c2ccc(Cl)cc2)noc1N1CCN(C)CC1	99
COC(=O)c1c(-c2ccc(Cl)cc2)noc1N1CCN(c2ccccc2F)CC1	71*!	GIV Gai FP conf=64;GIV-Gai AS conf=42746

(next part)
SMILES	GIV-Gai inh	others
COC(=O)c1c(-c2ccc(Cl)cc2)noc1N1CCN(c2cc(C)ccc2C)CC1	109
COc1cc2nc(=S)n3c(c2cc1OC)NC(CCC(=O)NCCc1ccc(Cl)cc1)C3=O (stereo not given)	110
CN(Cc1ccccc1)Cc1cc(=O)n2[nH]c(-c3ccccc3)nc2n1	95
O=C(c1ccccc1)C(Sc1ncn[nH]1)c1ccccc1 (stereo not given)	98
CC(C)c1ccc(S(=O)(=O)/N=C2/C=C(Sc3ncn[nH]3)C(=O)c3ccccc32)cc1	13*	GIV Gai FP conf=26*;GIV-Gai AS conf=3681*
Cc1ccc(C(=O)CSc2ncn[nH]2)cc1	96
Cc1ccc(S(=O)(=O)/N=C2\C=C(Sc3ncn[nH]3)C(=O)c3ccccc32)cc1	83*	GIV Gai FP conf=54*;GIV-Gai AS conf=4566*
O=C1C(Sc2ccccc2)=C/C(=N/S(=O)(=O)c2cccs2)c2ccccc21	95
Cc1ccc(S(=O)(=O)Nc2ccc(O)c(Sc3ncn[nH]3)c2)cc1	100
Cc1ccc(S(=O)(=O)N=C2C=CC(=NS(=O)(=O)c3ccc(C)cc3)C=C2)cc1	109
Cc1ccc(S(=O)(=O)/N=C2\C=CC(=O)c3ccccc32)c(C)c1	102
Cc1ccc(S(=O)(=O)/N=C2/C=C(Sc3ncn[nH]3)C(=O)c3ccccc32)cc1	5.9*	GIV Gai FP conf=16*;GIV-Gai AS conf=6564*
Cc1cccc(N2C(=O)c3sc4nnc(-c5ccccc5)c(=O)n4c3C2=O)c1C	113
CC(C)N1C(=O)C2C3C=CC(O3)C2C1=O (stereo not given)	105
CCOC(=O)c1ccccc1NC(=O)CSc1nc2c(c(=O)[nH]1)CCCC2	102
CCOC(=O)C1CCCN(c2nc(C)nc3onc(C)c23)C1 (stereo not given)	102
CC(=O)Nc1cc2c(C)cc(=O)oc2c2c1O/C(=C\c1ccc(Cl)cc1)C2=O	121
CCOc1c(OC)cc(/C=C2/C(=O)N(c3ccc(S(N)(=O)=O)cc3)N=C2C)cc1[N+](=O)[O-]	95
COc1cc(/C=C2\C(=O)N(c3ccc(S(N)(=O)=O)cc3)N=C2C)cc(Br)c1OCc1ccccc1	66*	GIV Gai FP conf=59;GIV-Gai AS conf=27596*
COc1cc(/C=C2\C(=O)N(c3ccc(S(N)(=O)=O)cc3)N=C2C)cc(Cl)c1OCc1ccccc1	96
Cc1ccc(-c2nc3ccccc3c(=O)[nH]2)cc1	101
CC(C)(C)c1ccc(-c2nc3ccccc3c(=O)[nH]2)cc1	99
O=c1[nH]c(-c2ccc(O)cc2)nc2ccccc12	88	GIV Gai FP conf=69;GIV-Gai AS conf=45426
CC1=NN(c2cccc(Br)c2)C(=O)/C1=C\c1ccc(-c2cccc([N+](=O)[O-])c2)o1	100
O=C1OC(c2ccccc2)OC(=O)C1=Cc1ccc(-c2cccc(Br)c2)o1 (stereo not given)	64*	GIV Gai FP conf=63;GIV-Gai AS conf=17821*

Sorted by formula weight (lowest first): 3 of the compounds above
SMILES	GIV-Gai inh	others
O=c1c2cccc3cccc(c32)c2nc3ccc4ccccc4c3n12	112
Cc1ccc(S(=O)(=O)/N=C2\C=CC(=O)c3ccccc32)c(C)c1	102
COC(=O)c1c(-c2ccc(Cl)cc2)noc1N1CCN(c2cc(C)ccc2C)CC1	109

(more compounds)
SMILES	GIV-Gai inh	others
O=C1NC(=O)C(=Cc2ccc(-c3ccccc3)o2)C(=O)N1	93
COc1cc(OC)cc(-c2nc3ccccc3c(=O)n2OC(=O)c2ccccc2Cl)c1	102
O=C(Cn1cnc2ccccc21)N1CCCC1	105
O=C(CSc1nnc(-c2ccccn2)c(-c2ccccn2)n1)c1ccc(N2CCCC2=O)cc1	107
O=C(CSc1nnc2c(n1)CCCC2)c1ccc(N2CCCC2=O)cc1	66*	GIV Gai FP conf=53*;GIV-Gai AS conf=2430*
NC(=O)CSc1nnc2c(n1)CCCC2	99
COc1ccc(CNC(=O)c2ccc(-c3ccsc3)cc2)c(OC)c1	103
[N-]=[N+]=c1c(=O)ccc2c(=O)c3ccccc3c(=O)c1=2	63*	GIV Gai FP conf=44*;GIV-Gai AS conf=2044*
O=C1C[C@H](c2ccc(O)cc2)Oc2cc(O)cc(O)c21	100
CC1CCc2oc3ccc(NS(=O)(=O)c4ccc(Cl)cc4)cc3c2C1 (stereo not given)	108
Cc1sc(-c2ccno2)cc1S(=O)(=O)N1CCCCCC1	111
COc1cccc(C(=O)Nc2ccc(-c3nc(C)no3)cc2)c1	107
CC1CC(=O)N(Cc2ccc(C(C)(C)C)cc2)c2ccccc2N1 (stereo not given)	101
CCOC(=O)c1ccc(N2C(=S)N=C(Nc3cccc(C)c3)C23CCCCC3)cc1	106
O=C(O)/C=C/C(=O)c1ccccc1	101
O=C(/C=C/Sc1ccccn1)c1ccccc1	86	GIV Gai FP conf=63;GIV-Gai AS conf=40583
O=C(/C=C/Sc1nc2ccccc2o1)c1ccccc1	101
Cc1cccn2c(=O)c(/C=C3\SC(=S)N(C(C)C)C3=O)c(N3CC(C)OC(C)C3)nc12 (stereo not given)	138
O=C1C=C(O)c2cccc3cccc1c23	83*	GIV Gai FP conf=59;GIV-Gai AS conf=15097*
O=C1NC(=O)c2cccc3cccc1c23	105
O=C1c2cccc3cccc(c23)C(=O)N1c1ccccc1O	99
Cc1sc(C)c(S(=O)(=O)N2CCCCCC2)c1-c1cc(C(F)(F)F)on1	105

4 entries drawn at random from the list so far:
SMILES	GIV-Gai inh	others
O=C1c2cccc3cccc(c23)C(=O)N1c1ccccc1O	99
Cc1sc(-c2ccno2)cc1S(=O)(=O)N1CCCCCC1	111
COc1cc(OC)cc(-c2nc3ccccc3c(=O)n2OC(=O)c2ccccc2Cl)c1	102
O=C1C[C@H](c2ccc(O)cc2)Oc2cc(O)cc(O)c21	100

Source: PubChem BioAssay (ICCB-Longwood Screening Facility, Harvard Medical School)
